{"sequences": {"note": "Amino acid sequences for entries named in this document (tags omitted). Residues count along the entry.", "UniProt P25774, 115-331 limits assumed": "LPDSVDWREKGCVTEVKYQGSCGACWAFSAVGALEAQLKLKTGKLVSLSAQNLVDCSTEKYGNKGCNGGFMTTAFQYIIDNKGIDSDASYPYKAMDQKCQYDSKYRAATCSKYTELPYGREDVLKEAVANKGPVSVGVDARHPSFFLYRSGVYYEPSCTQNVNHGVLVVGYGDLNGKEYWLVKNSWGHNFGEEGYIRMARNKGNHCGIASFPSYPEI"}, "source": "ChEMBL document CHEMBL5726093", "about": "“Piperidine derivatives” (2019)", "biological_target": "Cathepsin S (Homo sapiens, UniProt P25774)", "assay": "Cathepsin Enzyme Inhibition Assay: Enzyme activity is measured by observing the increase in fluorescence intensity caused by cleavage of a peptide substrate containing a fluorophore whose emission is quenched in the intact peptide.Assay buffer: 100 mM potassium phosphate pH 6.5, EDTA-Na 5 mM, Triton X-100 0.001%, DTT 5 mM.Enzymes (all at 1 nM): human and mouse Cathepsin S, Cat K, Cat B, Cat L.Subs", "data": [{"smiles": "Cc1[nH]c(-c2ccc(Cl)c(F)c2)nc1CN1CCC(n2c(=O)n(C)c3ccccc32)CC1", "values": [{"measurement": "IC50", "value": 1.84, "unit": "µM"}]}, {"smiles": "Cc1oc(-c2ccc(C(F)(F)F)cc2)nc1CN1CCC(n2c(=O)n(C)c3ccccc32)CC1", "values": [{"measurement": "IC50", "value": 2.54, "unit": "µM"}]}, {"smiles": "Cc1[nH]c(-c2ccc(Cl)cc2Cl)nc1CN1CCC(n2c(=O)n(C)c3ccccc32)CC1", "values": [{"measurement": "IC50", "value": 3.35, "unit": "µM"}]}, {"smiles": "Cc1[nH]c(-c2ccc(C(F)(F)F)cc2)nc1CN1CCC(n2c(=O)[nH]c3cc(Cl)ccc32)CC1", "values": [{"measurement": "IC50", "value": 0.245, "unit": "µM"}]}, {"smiles": "Cc1[nH]c(-c2ccc(C(F)(F)F)cc2)nc1CN1CCC(n2c(=O)[nH]c3ccccc32)CC1", "values": [{"measurement": "IC50", "value": 0.42, "unit": "µM"}]}, {"smiles": "Cc1ccc(-c2nc(CN3CCC(n4c(=O)[nH]c5cc(Cl)ccc54)CC3)c(C)[nH]2)cc1F", "values": [{"measurement": "IC50", "value": 1.96, "unit": "µM"}]}, {"smiles": "Cc1ccc(-c2nc(CN3CCC(n4c(=O)[nH]c5cc(Cl)ccc54)CC3)c(C)[nH]2)cc1Cl", "values": [{"measurement": "IC50", "value": 1.02, "unit": "µM"}]}, {"smiles": "Cc1[nH]c(-c2ccc(C(F)(F)F)cc2)nc1CN1CCC(n2c(=O)n(C)c3ccccc32)CC1", "values": [{"measurement": "IC50", "value": 0.28, "unit": "µM"}]}, {"smiles": "Cc1[nH]c(-c2ccc(Cl)c(Cl)c2)nc1CN1CCC(n2c(=O)n(C)c3ccccc32)CC1", "values": [{"measurement": "IC50", "value": 0.875, "unit": "µM"}]}]}
